Experimental data reported in BindingDB's records for PubMed 10336510 (Virginia Commonwealth University, 1999).

Chains of the proteins cited; added tags and fusions are not shown.
UniProt P31652, whole entry: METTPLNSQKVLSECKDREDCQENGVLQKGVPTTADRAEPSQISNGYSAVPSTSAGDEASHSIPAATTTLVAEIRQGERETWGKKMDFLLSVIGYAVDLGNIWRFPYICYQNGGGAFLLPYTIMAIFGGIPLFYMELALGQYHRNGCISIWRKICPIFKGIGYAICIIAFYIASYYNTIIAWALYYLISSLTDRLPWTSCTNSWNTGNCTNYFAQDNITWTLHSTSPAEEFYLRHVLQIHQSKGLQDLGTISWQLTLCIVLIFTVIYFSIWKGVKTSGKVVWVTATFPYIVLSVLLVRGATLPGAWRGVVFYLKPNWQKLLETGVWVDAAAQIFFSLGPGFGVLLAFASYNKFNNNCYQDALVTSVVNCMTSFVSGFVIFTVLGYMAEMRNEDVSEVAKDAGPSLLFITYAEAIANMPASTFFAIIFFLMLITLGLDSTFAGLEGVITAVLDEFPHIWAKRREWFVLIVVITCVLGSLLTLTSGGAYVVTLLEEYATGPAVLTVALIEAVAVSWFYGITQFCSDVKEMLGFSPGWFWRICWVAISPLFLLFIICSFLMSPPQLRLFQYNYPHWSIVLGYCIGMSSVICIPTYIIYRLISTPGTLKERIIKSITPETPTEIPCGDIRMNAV

Target: Sodium-dependent serotonin transporter (Rattus norvegicus, UniProt P31652)

Work on COC(=O)[C@H]1[C@@H](c2ccccc2)C[C@@H]2CC[C@H]1N2C [methyl (1R,2S,3S,5S)-8-methyl-3-phenyl-8-azabicyclo[3.2.1]octane-2-carboxylate] yielded a Ki of 1.96 µM.
